The values below come from ChEMBL document CHEMBL1156179 (J Med Chem, 2010).

Amino acid sequences for entries named in this document (tags omitted).
UniProt P30542, whole entry: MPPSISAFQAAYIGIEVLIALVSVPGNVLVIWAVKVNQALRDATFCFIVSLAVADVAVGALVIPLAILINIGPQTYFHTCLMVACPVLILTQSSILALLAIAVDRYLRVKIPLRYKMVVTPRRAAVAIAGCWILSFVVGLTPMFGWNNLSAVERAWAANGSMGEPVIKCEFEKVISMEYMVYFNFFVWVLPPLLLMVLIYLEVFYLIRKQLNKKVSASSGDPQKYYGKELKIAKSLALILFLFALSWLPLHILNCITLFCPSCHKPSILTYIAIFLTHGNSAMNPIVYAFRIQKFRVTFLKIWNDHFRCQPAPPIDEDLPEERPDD

pKi: −log10 of the molar value.

One assay concerns the target Adenosine receptor A1 (Homo sapiens, UniProt P30542). Description: Displacement of [3H]CCPA from human cloned adenosine A1 receptor expressed in CHO cells. In kind it is cell-based. The gist of the method:
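CHO membranes with hA1 receptor, from 1000g 4 min spin then 100000g 30 min. Incubated 3 h at 25 °C with 1 nM [3H]CCPA, 0.2 U/mL adenosine deaminase, 20 μg protein in 50 mM Tris/HCl pH 7.4 and graded compound. Nonspecific binding with 1 mM theophylline.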

A further assay deals with Adenosine receptor A2a (Homo sapiens, UniProt P29274). Nature of the assay: Displacement of [3H]NECA from human cloned adenosine A2a receptor expressed in CHO cells. The class given is cell-based. The gist of the method:
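hA2A-CHO membranes, prepared by two-step centrifugation, were incubated with 30 nM [3H]NECA, 50 μg protein and graded compound under the A1 binding conditions. Nonspecific binding with 100 μM R-PIA.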
For orientation: In a radioligand displacement assay an active substance lowers the binding of a labelled ligand.

Broadly, the pKi is the Ki on a negative log10 scale, so that one unit is a factor of ten. With `Nc1nc2c(cnn2CCc2ccccc2)c2nc(-c3ccc(Cl)cc3)nn12`, the values for the negative logarithm of the Ki (pKi) on Adenosine receptor A1 and on Adenosine receptor A2a were less than 4.00 and 5.22, respectively.
